Laboratory results reported in US20250222143A1, “TARGETED RADIOTHERANOSTICS BASED ON POLYAZAMACROCYCLIC, MIXED-DONOR SCAFFOLDS LINKED TO A TARGETING VECTOR” (The Research Foundation for the State University of New York, priority 2021, published 2025).

System: PSMA+ (PC-3 PiP) and PSMA-(PC-3 Flu) tumor xenografts
Conditions: i.v., n = 4

SMILES: O=C([O-])CN1CCN(CC(=O)[O-])CCN(CC(=O)NCC2CCC(C(=O)N[C@@H](Cc3ccc4ccccc4c3)C(=O)NCCCC[C@H](NC(=O)N[C@@H](CCC(=O)O)C(=O)O)C(=O)O)CC2)CCN(CC(=O)[O-])CC1.[177Lu+3] (stereo partly drawn) [^177Lu-PSMA-617, reference compound]
- Tumor− 72 h p.i. (PSMA- PC-3 flu tumor, 72 h p.i.): 0.02 ± 0.01 % ID/g
- Blood 72 h p.i. (tumor-bearing mice, Blood, 72 h p.i.): 0.03 ± 0.01 % ID/g
- Bone 24 h p.i. (tumor-bearing mice, Bone, 24 h p.i.): 0.07 ± 0.01 % ID/g
- Bone 72 h p.i. (tumor-bearing mice, Bone, 72 h p.i.): 0.05 ± 0.01 % ID/g
- Heart 24 h p.i. (tumor-bearing mice, Heart, 24 h p.i.): 0.09 ± 0.04 % ID/g
- Heart 72 h p.i. (tumor-bearing mice, Heart, 72 h p.i.): 0.03 ± 0.01 % ID/g
- Kidney 72 h p.i. (tumor-bearing mice, Kidney, 72 h p.i.): 0.08 ± 0.04 % ID/g
- Liver 24 h p.i. (tumor-bearing mice, Liver, 24 h p.i.): 0.08 ± 0.04 % ID/g
- Liver 72 h p.i. (tumor-bearing mice, Liver, 72 h p.i.): 0.03 ± 0.00 % ID/g
- Muscle 24 h p.i. (tumor-bearing mice, Muscle, 24 h p.i.): 0.04 ± 0.01 % ID/g
- Muscle 72 h p.i. (tumor-bearing mice, Muscle, 72 h p.i.): 0.02 ± 0.01 % ID/g
- Sm Int 24 h p.i. (tumor-bearing mice, Sm Int, 24 h p.i.): 0.06 ± 0.02 % ID/g
- Sm Int 72 h p.i. (tumor-bearing mice, Sm Int, 72 h p.i.): 0.03 ± 0.01 % ID/g
- Spleen 24 h p.i. (tumor-bearing mice, Spleen, 24 h p.i.): 0.08 ± 0.03 % ID/g
- Spleen 72 h p.i. (tumor-bearing mice, Spleen, 72 h p.i.): 0.04 ± 0.01 % ID/g
